Experimental data: ChEMBL document CHEMBL5126505, “Adenosine receptor antagonists: Recent advances and therapeutic perspective” (Eur J Med Chem, 2022)

Key:
Adenosine receptor A2a [1] = target: T1, Adenosine receptor A2a (Homo sapiens, UniProt P29274); test: Binding affinity to human adenosine A2A receptor assessed as dissociation constants of high-affinity (KH) measured by radioligand-based affinity assay; settings: filed as inverse agonist
Adenosine receptor A2a [2] = target: T1, Adenosine receptor A2a; test: Inverse agonist activity at human A2A receptor assessed as inhibition of cAMP accumulation relative to control; type: functional; parameters: scale not given: the % may be the effect or the level left; settings: filed as inverse agonist

K (Adenosine receptor A2a [1]) | Activity (Adenosine receptor A2a [2]) | Compound
7.16 nM | 63% | COc1ccccc1CNc1nc(N)c2nc(-c3ccco3)sc2n1
23 nM | 41% | COc1cccc(CNc2nc(N)c3nc(-c4ccco4)sc3n2)c1
